Our source for the EC50 and Ki values is patent publication US8487091B2, “Substituted cyclopentanes having prostaglandin activity” (Allergan, Inc., priority 2008, dated 2013).

The chains behind the UniProt entries cited, without tags or fusion partners.
UniProt P43116, whole entry: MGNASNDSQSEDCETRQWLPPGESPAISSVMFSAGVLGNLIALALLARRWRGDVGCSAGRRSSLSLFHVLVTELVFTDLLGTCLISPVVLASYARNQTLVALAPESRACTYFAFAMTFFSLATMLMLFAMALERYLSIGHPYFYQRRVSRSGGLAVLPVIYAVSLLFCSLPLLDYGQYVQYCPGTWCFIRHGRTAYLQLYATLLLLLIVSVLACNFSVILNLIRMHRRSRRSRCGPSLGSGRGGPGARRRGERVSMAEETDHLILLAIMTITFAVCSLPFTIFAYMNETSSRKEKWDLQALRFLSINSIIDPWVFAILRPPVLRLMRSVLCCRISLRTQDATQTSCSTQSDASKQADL

In experiment [1] the target is T1, EP2 (Homo sapiens, UniProt P43116). The experiment can be described thus: EP2 cAMP functional assay. Conditions: read-out: EP2 cAMP EC50. An excerpt:
(§1) United States Patent Application Publication No. 20070129552, describes the methods used to obtain the in vitro data in Table 1 below. The part of that reference which describes the method is incorporated by reference herein.

Experiment [2] concerns the target T1, EP2. In words: EP2 binding assay. As to conditions: read-out: EP2 Binding Ki.
From the text: as §1

Regarding `CCC1(C(O)C/C=C/[C@@H]2[C@@H](CCCc3ccc(C(=O)O)s3)CC[C@H]2C#N)CCC1` (some centres unmarked), the half-maximal effective concentration (EC50) at EP2 [1] amounted to 2.5 nM. Further, the Ki on EP2 [2] turned out to be 32 nM.

A word on the EC50: it is the concentration at which the effect is half-maximal. In general, Ki refers to a dissociation constant, usually derived from enzyme kinetics or from competition with a known ligand.
